Data published in patent US20100029544A1, “Composition” (priority 2006, published 2010).

Protocol: Drug loading was carried out as described above. To determine the concentration of encapsulated drug, the solutions were filtered (0.45 μm) and the filtrates were dissolved in methanol and subsequently analysed using an ultraviolet-visible spectrophotometer at the wavelength of 272 nm. A propofol calibration graph was prepared using various standard solutions (0.012-0.16 mgml^−1, R^2=0.998). The filtered formulations were sized using photon correlation spectroscopy and imaged by scanning electron microscopy (SEM).

In the case of “Quaternary Ammonium Cholesteryl Carbamate PAA [QCPAA]”, the “augmentation of propofol solubility” value is reported as 24 fold and the “propofol encapsulated / solubilised” value is reported as 2.82 mgml^−1.
